Screens from PubChem BioAssay.
ERp5 block: blocks human ERp5 reductase activity on insulin; Q15084; ERp5 insulin aggregation, absorbance 650 nm, 90 min; inhibition, % at 9.99 µM; hit rate 0.05% among 350,000;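 active = mean replicate inhibition above about 25%, with every replicate also reaching it, limit read from the data, passing the limit was not always enough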
SMARCA2 activ: SMARCA2 function activation, primary screen; activation, % at 9.1 µM; MG213 cells, MMTV-luciferase reporter, dexamethasone, overnight; hit rate 1% among 370,000; in the data active = activation above about 7.8%
PDI turbidity: blocks human protein disulfide isomerase activity; P07237; PDI insulin aggregation turbidity, A650, 90 min; inhibition, % at 10 µM; hit rate 0.052% among 350,000; AID 588391;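 active = mean inhibition across replicates of 30% or more, whatever share of single replicates reach that level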
INS-1E GSIS act: primary screen for activators of insulin secretion dependent on glucose, INS-1E cells, GLuc reporter luminescence; INS-1E GLuc reporter insulin secretion, 2-3 h; activation, % at 16.6 µM; hit rate 0.61% among 370,000; AID 743287;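 active = lowest replicate activation of at least 40%, so every replicate reaches that level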
UUG fidelity: modulators of start codon recognition fidelity in yeast; AID 602363; activity score, % at 18.7 µM; S. cerevisiae UUG-firefly luciferase reporter, luminescence/redox ratio; 0.13% of 350,000 active;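 active = replicate mean at a twofold rise or more, about +100% in these data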;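 note: firefly luciferase made from a UUG start codon reports start codon fidelity; reporter light over untreated wells divided by growth signal over untreated wells; some hits fall short of that in this replicate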
Rev-erbA mod: Rev-erb alpha (human) modulation; P20393; activity, % at 10 µM; hit rate 0.79% among 370,000; Rev-erbα–FITC-DNA binding, fluorescence polarization, 90 min;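 active = activity above about 14%, limit read from the data; passing the limit was not always enough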
SMARCA2 act conf: confirmation of SMARCA2 (BRM) function activators; shares compounds with SMARCA2 activ; MG213 cells, MMTV-luciferase with dexamethasone, luminescence, overnight; MG213 cells expressing E1A, Rb sequestered; DMSO wells 0%, reference activator 100%; activation, % at 9.1 µM; hit rate 30% among 3,500;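 active = activation above its plate's cutoff, the mean activation of tested wells plus 3 SD, cut at about 7.9% in these data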
GAL4-VP16 Luc: GAL4-VP16 reporter activation counter-screen; AID 686939; hit rate 41% among 3,500; HEK293 GAL4-VP16 pG5luc reporter, luciferase luminescence; scaled: DMSO wells 0%, SAHA wells 100%; activation, % at 9.1 µM; shares compounds with SMARCA2 activ;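 active = activation above the solvent-only control well mean plus 3 SD, averaged across control plates, cut at about 5.2% in these data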
Numbers stand for hits; 0 = inactive; - = no result. Only some compounds are listed: those with a hit (about 2.1% of all), similar ones and a draw of the others.

SMILES | ERp5 block | SMARCA2 activ | PDI turbidity | INS-1E GSIS act | UUG fidelity | Rev-erbA mod | SMARCA2 act conf | GAL4-VP16 Luc
Cn1c(=O)cc(SCC(=O)NCCC2=CCCCC2)c2ccc(Cl)cc21 | - | 8.3 | 0 | 0 | - | 0 | 0 | 0
Cc1occc1C(=O)N/N=C/C1=C(N2CCOCC2)C(=C\c2ccc(Cl)cc2Cl)/CC1 | 0 | 12.5 | 0 | 0 | 0 | 0 | 0 | 0
Cc1cc(C)nc(N/N=C/C2=C(N3CCOCC3)C(=C\c3ccc(Cl)cc3)/CC2)n1 | - | 0 | 0 | 0 | - | 0 | - | -
COc1ccc(S(=O)(=O)N(C)C[C@@H]2OCCCC[C@H](C)Oc3ccc(NC(=O)Nc4ccc5c(c4)OCO5)cc3C(=O)N([C@H](C)CO)C[C@H]2C)cc1 | 0 | - | - | 0 | 0 | - | - | -
O=c1cc(-c2ccccc2)oc2cc(O)c(O)c(O)c12 | 0 | 8.3 | - | 0 | 0 | 0 | 9.4 | 12.6
COc1c(O)cc2oc(-c3ccc(O)cc3)cc(=O)c2c1O | 0 | 0 | 0 | 0 | 0 | 0 | - | -
COc1ccc2nc3cc(Cl)ccc3c(Nc3cc(CN4CCCC4)c(O)c(CN4CCCC4)c3)c2n1 | 0 | 68.0 | 0 | - | 0 | 0 | 256.3 | 0
CCOC(=O)/C(C#N)=C/c1c(N2CCN(c3ccccc3)CC2)nc2ccccn2c1=O | 0 | 9.9 | 0 | 0 | 0 | 0 | 0 | 0
O=C(Cc1noc2ccccc12)Nc1ccccn1 | - | 0 | 0 | 0 | - | 0 | - | -
Cc1ccc(NC(=O)Cc2noc3ccccc23)nc1 | 0 | 9.3 | 0 | 0 | - | 0 | 0 | 0
C[C@@H]1CCCCO[C@H](CN(C)C(=O)NC2CCCCC2)[C@H](C)CN([C@H](C)CO)C(=O)c2cc(NS(=O)(=O)c3ccc(F)cc3)ccc2O1 | 0 | - | - | 0 | 0 | - | - | -
FC(F)(F)c1ccccc1Cc1c(-c2cccc(Cl)c2)nc2c3ccccc3ccn12 | 0 | 8.2 | - | 0 | - | 0 | 0 | 0
c1coc(-c2nc3c4ccccc4ccn3c2Cc2ccsc2)c1 | 0 | 20.3 | - | 0 | - | 0 | 16.1 | 0
Clc1cccc(Cc2c(-c3ccco3)nc3c4ccccc4ccn23)c1 | 0 | 24.0 | - | - | - | 0 | 11.7 | 10.3
FC(F)(F)c1ccccc1Cc1c(-c2ccc(Cl)cc2)nc2c3ccccc3ccn12 | 0 | 0 | - | 0 | - | 0 | - | -
C[C@H]1CN([C@@H](C)CO)S(=O)(=O)c2ccc(C#Cc3ccncc3)cc2O[C@@H]1CN(C)C(=O)C1CCC1 | 0 | - | - | 0 | 0 | - | - | -
CC(=O)N(C)C[C@@H]1[C@H](c2ccc(-c3cccc(C#N)c3)cc2)[C@H](CO)N1C(C)=O | 0 | - | - | 0 | - | - | - | -
O=C(C[C@@H]1CC[C@@H](NC(=O)c2cccnc2)[C@@H](CO)O1)NCCN1CCCCC1 | 0 | - | - | 0 | 0 | - | - | -
COc1cc(OC)c(OC)cc1CNCCNC(=O)c1ccco1 | 0 | 9.2 | 0 | 0 | - | 0 | 0 | 0
COc1cccc(CNCCNC(=O)c2ccco2)c1OC | - | 0 | 0 | - | 0 | 0 | - | -
CN1C(=O)c2cc(NC(=O)C3CC3)ccc2OC[C@H]2O[C@@H](CC(=O)Nc3ccc(F)cc3)CC[C@@H]21 | - | - | - | 0 | 0 | - | - | -
Cn1cc([N+](=O)[O-])c(C(=O)Nc2ccc(-c3nc4ccccc4[nH]3)cc2)n1 | 0 | 9.8 | 0 | 0 | - | 0 | 10.7 | 7.6
Cc1cncc(N2CCN(c3ccccn3)CC2)n1 | 0 | 0 | 0 | - | 0 | 0 | - | -
COc1ccc(N2CCN(c3cncc(C)n3)CC2)cc1 | 0 | 8.2 | 0 | - | 0 | 0 | 0 | 0
Cc1ccc2nc3c(cc(C(=O)NCc4ccco4)c(=N)n3C3CCCC3)c(=O)n2c1 | 0 | 9.1 | 0 | 0 | 0 | 0 | 15.2 | 0
Cc1ccc2nc3c(cc(C(=O)NCC4CCCO4)c(=N)n3C3CCCC3)c(=O)n2c1 (stereo not drawn) | 0 | 8.8 | 0 | 0 | 0 | 0 | 0 | 0
N=c1c(C(=O)NCC2CCCO2)cc2c(=O)n3ccccc3nc2n1C1CCCC1 (stereo not drawn) | 0 | 0 | 0 | 0 | 0 | 0 | - | -
Cc1ccc(Nc2nc(N/N=C/c3c[nH]c4ccccc34)nc(N3CCOCC3)n2)cc1 | 0 | 0 | 0 | - | - | 0 | - | -
C(=N\Nc1nc(Nc2ccccc2)nc(N2CCOCC2)n1)/c1c[nH]c2ccccc12 | - | 9.6 | - | - | - | 0 | 0 | 7.7
